Assay results published in US12415819B2, “Cu- and Ni-catalyzed decarboxylative borylation reactions” (The Scripps Research Institute, priority 2017, dated 2025).

The chains behind the UniProt entries cited, without tags or fusion partners. Residues count along the entry.
UniProt P08246, 30-267: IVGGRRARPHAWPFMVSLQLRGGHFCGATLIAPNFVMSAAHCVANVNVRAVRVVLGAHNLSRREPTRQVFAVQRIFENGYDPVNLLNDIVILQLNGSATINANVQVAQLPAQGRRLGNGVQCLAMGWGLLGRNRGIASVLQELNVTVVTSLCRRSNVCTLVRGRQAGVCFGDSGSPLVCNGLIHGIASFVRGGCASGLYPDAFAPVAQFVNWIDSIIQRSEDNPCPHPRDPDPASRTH

Columns and labels:
[1] = biological target: HNE (Homo sapiens (Human), UniProt P08246); conditions: literature value; read-out: reported Ki; cited from earlier work
[2] = biological target: elastase in COPD patient sputum (Homo sapiens (Human), UniProt P08246); assay: Elastase inhibition assay in COPD patient sputum; format: biochemical
[3] = biological target: elastase in CF patient sputum (Homo sapiens (Human), UniProt P08246); assay: Elastase inhibition assay in CF patient sputum; format: biochemical

## CC1=C(C#N)[C@@H](c2ccc(C#N)cc2S(C)(=O)=O)N(C)C(=O)N1c1cccc(C(F)(F)F)c1 [Compound 54, BAY 85-8501]
[1]
  Ki: 0.08 nM
[2]
  IC50: 0.024 ± 0.003 nM
[3]
  IC50: 0.4 ± 0.04 nM
